Test results published in US12410399B2, “Compositions and methods for treating retinal diseases” (The Regents of the University of California, priority 2011, dated 2025).

Tested on: hRPCs
Test: hRPC culture medium and supplement comparison (yield, proliferation)
Type: cell-based, human
Procedure: Various serum- and xeno-free cell culture media were tested to determine the optimum condition for propagating RPCs, including DMEM/FF12 (standard, Advanced and KnockOut; Invitrogen), Neurobasal (Invitrogen), Ultraculture (Lonza), and ReNcell (Chemicon). Cell culture media used in the culture of RPCs were sometimes supplemented with N2 supplement (Invitrogen), B27 (Invitrogen or other brand), Stempro (Invitrogen), vitamin C, albumin, recombinant human epidermal growth factor (EGF), basic fibroblast growth factor (bFGF), GlutaMAX I, L-Glutamine, and/or Penicillin-Streptomycin (Invitrogen) for first 2 weeks. “SM” as provided herein refers to standard growth medium based on DMEM/FF12. “UL” is referred to herein as growth medium using Ultraculture as the base medium. Serum-free media was used in the absence of antibiotics or with antibiotics for first two weeks, followed by antibiotic-free media for about 6 weeks. No antifungal agents were used. […] For base medium, standard DMEM/F12, a media supplemented with N2 Supplement, growth factors, glutamine or GLUTAMAX™ (GlutaMax™), was compared with “Advanced DMEM/FF12”, supplemented in the same way.
The effects of cell culture supplementation were also explored. To that end, the N2 supplement was also compared with the B27 xeno-free supplement. […] The effects of additional vitamin C were also tested. […]

albumin: xeno-free human recombinant albumin added to medium at 1.0 mg/ml
enhancement of proliferation (1.0 mg/ml added to standard DMEM/F12-based medium): up to 27% | enhancement of proliferation (additional albumin added to Advanced DMEM/F12-based medium): no detectable improvement
